# The list shows a part of the results, in another mix than the full data. Some tests of the compounds listed are not included; inactive here does not mean inactive elsewhere. Active and inactive are the calls of the source.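 Rule for the calls: active = inhibition above the mean of compounds falling within the control limits plus 3 SD of them (cut at about 14% in these data); inactive = the rest.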
# Chains of the proteins cited; added tags and fusions are not shown.
# UniProt P02675, whole entry, looked up: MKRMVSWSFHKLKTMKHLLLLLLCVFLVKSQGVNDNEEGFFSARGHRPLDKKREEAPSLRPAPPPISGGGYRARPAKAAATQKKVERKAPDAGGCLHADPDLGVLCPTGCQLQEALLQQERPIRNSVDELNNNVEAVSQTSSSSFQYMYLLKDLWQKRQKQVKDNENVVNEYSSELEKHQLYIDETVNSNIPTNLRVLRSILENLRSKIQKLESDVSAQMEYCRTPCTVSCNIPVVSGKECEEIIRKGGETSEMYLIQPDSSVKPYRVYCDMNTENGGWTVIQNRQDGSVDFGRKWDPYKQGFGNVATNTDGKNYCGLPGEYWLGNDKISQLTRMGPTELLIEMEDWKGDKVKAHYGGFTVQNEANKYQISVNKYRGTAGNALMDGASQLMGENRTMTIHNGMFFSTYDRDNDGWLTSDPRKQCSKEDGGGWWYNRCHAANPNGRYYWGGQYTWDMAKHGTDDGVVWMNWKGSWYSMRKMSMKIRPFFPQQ
# Target: Fibrinogen beta chain (Homo sapiens) (UniProt P02675)
# Assay: small molecules displacing Tn7 from DD(E) complex – biochemical, fluorescence polarization, human fibrin, Tn7 probe, primary screen (AID 720508);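 note: 0% = plate median of compound wells and 100% = 10 µM Aha-Tn7 peptide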
# Details: FP displacement of FITC-Tn7 peptide from fibrin DD(E); at 8.3 µM; active compounds read high; 0% = median of compound wells per plate
row,Compound,inhibition
1,O=C(NCC1(N2CCCCC2)CCCCC1)c1cccc(Cl)c1,inactive: 0.72%
2,COc1ccc(Cl)cc1C(=O)NCC1(N(C)C)CCCCC1,inactive: 1.41%
3,COc1cccc(C(=O)NCC2(N3CCCCC3)CCCCC2)c1,inactive: -7.8%
4,COc1cc(C(=O)NCC2(N(C)C)CCCCC2)c([N+](=O)[O-])cc1OC,inactive: 2.55%
5,CN(C)C1(CNC(=O)c2ccc(Br)cc2)CCCCC1,inactive: -2.71%
6,CN(C)c1cccc(C(=O)NCC2(N(C)C)CCCCC2)c1,inactive: 8.12%
7,O=C(OCCN1CCCC1)C(O)(c1ccccc1)c1ccccc1,inactive: -0.61%
8,CC(C)Oc1ccc(C(=O)NCC2(N(C)C)CCCCC2)cc1,inactive: 0.9%
9,COc1ccc(Br)c(C(=O)NCC2(N3CCCCC3)CCCCC2)c1,inactive: 1.33%
10,C=C(C)C#CC(O)(C(=O)OC1CCN(C)CC1)c1ccccc1 (stereo unspecified),inactive: 0.29%
11,O=C(OC1CN2CCC1CC2)C(CO)(c1ccccc1)c1ccccc1 (stereo unspecified),inactive: 2.09%
12,Cc1ccc(C(=O)NCC2(N3CCCCC3)CCCCC2)cc1,inactive: 2.14%
13,CC(C)N1C(=O)CC2(CCN(CCOC(=O)C(O)(c3ccccc3)c3ccccc3)CC2)C1=O,inactive: 3.3%
14,COc1cc(SC)ccc1C(=O)NCC1(N(C)C)CCCCC1,inactive: 0.96%
15,CCN(CC)CC(C)C(C)OC(=O)C(O)(c1ccccc1)c1ccccc1 (stereo unspecified),inactive: -3.93%
16,CN1[C@@H]2CC[C@H]1CC(OC(=O)C(O)(c1ccccc1)c1ccccc1)C2 (stereo partly specified),inactive: -5.06%
17,O=C(NCC1(N2CCCCC2)CCCCC1)c1cc([N+](=O)[O-])ccc1Cl,inactive: 3.18%
18,O=C(NCC1(N2CCCCC2)CCCCC1)c1cccc(Br)c1,inactive: 3.86%
19,CCN1CCCC(OC(=O)C2(O)c3ccccc3C=Cc3ccccc32)C1 (stereo unspecified),inactive: 1.3%
20,Cc1cc(C(=O)NCC2(N3CCCCC3)CCCCC2)ccc1[N+](=O)[O-],inactive: -5.16%
21,COc1ccc(C(=O)NCC2(N(C)C)CCCCC2)cc1,inactive: 3.82%
22,O=C(NCC1(N2CCCCC2)CCCCC1)c1cc(F)c(F)cc1Cl,inactive: -1.92%
23,C=CCN1CCN(CCOC(=O)C(O)(c2ccccc2)c2ccccc2)CC1,inactive: -4.66%
24,CN(C)c1ccc(C(=O)NCC2(N(C)C)CCCCC2)cc1,inactive: -6.59%
25,CN(C)C1CCCC1OC(=O)C(O)(c1ccccc1)c1ccccc1 (stereo unspecified),inactive: 0.42%
26,Cc1ccccc1C(=O)NCC1(N2CCCCC2)CCCCC1,inactive: -7.86%

# Source: PubChem BioAssay AID720508 (The Scripps Research Institute Molecular Screening Center, 2013)
